Experimental data reported in PubChem BioAssay AID1800 (The Scripps Research Institute Molecular Screening Center, 2009).
Only a part is listed here, and it is no random draw. Some of these compounds have results that are not shown, active ones among them. Active and inactive are the calls of the source.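 The calls were made as follows: active = inhibition above the mean of all tested compounds plus 3 SD, set per campaign (cut at about 35% in these data); inactive = the rest.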

The compounds below were run on Hepatitis C virus NS3 helicase (assay: HCV NS3 DNA unwinding blockers – biochemical, Cy5 molecular beacon fluorescence, primary screen (AID 1800;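 also: 0% = DMSO wells and 100% = thioflavine S control wells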)). Details: at 10.9 µM, hits give high values.
How it was run: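 Assay system – hepatitis C virus NS3 helicase domain fragment enzyme · Buffer or medium – MOPS pH 6.5, MgCl2, DTT, Tween20, BSA · Reagent – Cy5/quencher beacon DNA duplex and ATP to start · Compound – single 10.9 µM dose · Timing – 1 h at 25 °C · Technique – Cy5 beacon fluorescence read at start and 1 h · Measure – % inhibition of unwinding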

SMILES | inhibition
O=C(NCC1(N2CCCCC2)CCCCC1)c1cc([N+](=O)[O-])ccc1Cl | inactive: -1.41%
CN1[C@@H]2CC[C@H]1CC(OC(=O)C(O)(c1ccccc1)c1ccccc1)C2 (some centres undefined) | inactive: 2.84%
CCN(CC)CC(C)C(C)OC(=O)C(O)(c1ccccc1)c1ccccc1 (centres undefined) | inactive: 0.62%
COc1cc(SC)ccc1C(=O)NCC1(N(C)C)CCCCC1 | inactive: 9.49%
CC(C)N1C(=O)CC2(CCN(CCOC(=O)C(O)(c3ccccc3)c3ccccc3)CC2)C1=O | inactive: 2.62%
Cc1ccc(C(=O)NCC2(N3CCCCC3)CCCCC2)cc1 | inactive: -31.3%
Cc1ccccc1C(=O)NCC1(N2CCCCC2)CCCCC1 | inactive: -3%
CN(C)C1CCCC1OC(=O)C(O)(c1ccccc1)c1ccccc1 (centres undefined) | inactive: 1.37%
CN(C)c1ccc(C(=O)NCC2(N(C)C)CCCCC2)cc1 | inactive: -1.83%
C=CCN1CCN(CCOC(=O)C(O)(c2ccccc2)c2ccccc2)CC1 | inactive: 2.53%
O=C(NCC1(N2CCCCC2)CCCCC1)c1cc(F)c(F)cc1Cl | inactive: -8.62%
COc1ccc(C(=O)NCC2(N(C)C)CCCCC2)cc1 | inactive: -7.17%
Cc1cc(C(=O)NCC2(N3CCCCC3)CCCCC2)ccc1[N+](=O)[O-] | inactive: -12.6%
CCN1CCCC(OC(=O)C2(O)c3ccccc3C=Cc3ccccc32)C1 (centres undefined) | inactive: -14%
O=C(NCC1(N2CCCCC2)CCCCC1)c1cccc(Br)c1 | inactive: 1.68%
CN(C)C1(CNC(=O)c2ccc(Br)cc2)CCCCC1 | inactive: 5.05%
COc1cc(C(=O)NCC2(N(C)C)CCCCC2)c([N+](=O)[O-])cc1OC | inactive: 27.5%
COc1cccc(C(=O)NCC2(N3CCCCC3)CCCCC2)c1 | inactive: -10.8%
COc1ccc(Cl)cc1C(=O)NCC1(N(C)C)CCCCC1 | inactive: 7.24%
O=C(NCC1(N2CCCCC2)CCCCC1)c1cccc(Cl)c1 | inactive: 2.22%
O=C(OC1CN2CCC1CC2)C(CO)(c1ccccc1)c1ccccc1 (centres undefined) | inactive: -4.35%
COc1ccc(Br)c(C(=O)NCC2(N3CCCCC3)CCCCC2)c1 | inactive: -20.2%
CC(C)Oc1ccc(C(=O)NCC2(N(C)C)CCCCC2)cc1 | inactive: -6.51%
CN(C)c1cccc(C(=O)NCC2(N(C)C)CCCCC2)c1 | inactive: 2.66%
